Data on two compounds can be found in patent publication US11932652B2, “Pyrrolidinyl urea derivatives and application thereof in TrkA-related diseases” (ZHANGZHOU PIEN TZE HUANG PHARMACEUTICAL CO., LTD., priority 2018, dated 2024).

By UniProt entry, the sequences of proteins in these tests, tags left out. Residues count along the entry.
UniProt P04629, 33-796 limits assumed: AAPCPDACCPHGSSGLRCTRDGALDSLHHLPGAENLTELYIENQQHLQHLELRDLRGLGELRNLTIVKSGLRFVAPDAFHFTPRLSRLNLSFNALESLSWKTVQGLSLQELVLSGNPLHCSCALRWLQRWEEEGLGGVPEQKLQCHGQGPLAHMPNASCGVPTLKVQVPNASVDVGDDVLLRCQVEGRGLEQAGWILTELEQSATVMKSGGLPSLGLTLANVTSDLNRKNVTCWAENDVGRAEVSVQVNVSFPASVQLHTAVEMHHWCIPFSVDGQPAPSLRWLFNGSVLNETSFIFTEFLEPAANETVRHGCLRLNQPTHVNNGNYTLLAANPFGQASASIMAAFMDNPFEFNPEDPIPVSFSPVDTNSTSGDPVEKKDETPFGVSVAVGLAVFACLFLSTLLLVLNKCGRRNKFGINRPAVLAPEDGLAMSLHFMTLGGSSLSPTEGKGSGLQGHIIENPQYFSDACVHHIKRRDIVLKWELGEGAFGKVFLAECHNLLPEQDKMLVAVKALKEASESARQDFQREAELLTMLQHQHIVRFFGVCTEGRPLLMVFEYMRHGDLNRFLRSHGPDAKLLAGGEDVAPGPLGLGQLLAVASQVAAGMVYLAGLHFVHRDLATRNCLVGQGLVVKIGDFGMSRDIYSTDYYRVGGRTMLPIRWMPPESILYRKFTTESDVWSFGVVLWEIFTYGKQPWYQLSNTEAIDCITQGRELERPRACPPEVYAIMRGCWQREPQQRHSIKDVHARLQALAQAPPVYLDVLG

The IC50 is the midpoint of a concentration-inhibition curve.

Series [1] addresses TrkA (Homo sapiens, UniProt P04629). The series can be described thus: TrkA enzyme activity test (HTRF). To be noted: read-out: TrkA IC50; 0.5 nM TrkA kinase, 90 μM ATP, 23° C., 90 minutes. The procedure:
50 mM Hepes (pH 7.5), 5 mM MgCl2 (magnesium chloride), 0.01 mM orthovanadate (sodium vanadate), 1% BSA (bovine serum albumin), 1 mM (dithiothreitol)
This experiment used Cisbio's homogeneous time-resolved fluorescence resonance energy transfer (HTRF® method) for activity test. In the test plate, the enzyme, biotin-labeled peptide substrate, ATP, and test compound were mixed, and incubated for reaction. After the reaction, ethylenediaminetetraacetic acid was added to terminate the reaction; at the same time, Eu-labeled antibody and streptavidin-labeled XL665 were added for reaction and detection. The data were expressed by the readings of the fluorescence signal at 665 nm and 620 nm, where a high ratio of 665 nm/620 nm indicated higher activity, and a low ratio of 665 nm/620 nm indicated inhibition of activity.
1. Dilution of compound: the test compound was 3-fold diluted to prepare a total of 11 concentrations, the concentration was from 10 μM to 0.17 nM in the final system;
2. […] 10 μL of stop solution containing 20 mM EDTA, 1.34 nM phosphorylated substrate antibody, and 100 nM streptavidin-labeled fluorescent molecule XL-665 was then added, incubated at 23° C. for 60 minutes; the signal was read with Envision;
3. The inhibition rate of the compound was calculated from the data read by the instrument, and the IC50 value was calculated using the mode 205 in XLFIT5 of IDBS.
Background: Time-resolved FRET reads energy transfer from a long-lived donor to a nearby acceptor.

The test system of series [2] is plasma protein. The series can be described thus: Plasma protein binding rate (PPB) test, SD rat plasma. Conditions: 2 μM, dialysis 37° C. 4 hours.
Series [3] is described as follows: Metabolic stability (MMS) by rat liver microsome. To be noted: 0.5 mg protein/mL. (Liver microsomes are vesicles of endoplasmic reticulum, rich in cytochrome P450 enzymes.)
A short description of series [4]: Metabolic stability (MMS) by human liver microsome. Conditions: 0.5 mg protein/mL.
The subject of series [5] is plasma protein. The series can be described thus: Plasma protein binding rate (PPB) test, human plasma. To be noted: 2 μM, dialysis 37° C. 4 hours.

Bounds are passed on as bounds.

As for `COCCN1C[C@@H](n2cc(F)c(F)c2)[C@H](NC(=O)Nc2c(C)c(-c3cnc4c(c3)CN(CCO)C4)nn2-c2ccccc2)C1`, the IC50 in series [1] is 0.25 nM. For the same compound, the “Plasma protein unbound rate, SD Rat plasma” value in series [2] stood at 8.0%. In series [3], the “Intrinsic clearance by liver microsome, Rat” value was less than 17.3 mL/min/kg. Further, the “Intrinsic clearance by liver microsome, Human” value in series [4] was 45.3 mL/min/kg. The “Plasma protein unbound rate, Human plasma” value in series [5] is listed as 33.8%.
Turning to `COCCN1C[C@@H](n2ccc(F)c2)[C@H](NC(=O)Nc2c(C)c(-c3cnc(C4(F)CN(C)C4)nc3)nn2-c2ccccc2)C1`, in series [1], the IC50 came out at 0.92 nM.
